# Ab-14 heavy chain CDR variants: yeast mating affinities

Data: MIT Lincoln Laboratory AlphaSeq set, Li et al. 2023, doi:10.1038/s41467-023-39022-2, as distributed in FLAb.

Target: peptide PDVDLGDISGINAS, taken from heptad repeat 2 (HR2) of SARS-CoV-2 spike.

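The variants were designed computationally from a first round of random CDR variants and then made and measured. Group labels follow the data file (Ctrl: baseline library sampled from a position-specific scoring matrix, with some repeated check sequences; Rand: our label for a block that the file lists under HC and that is probably the random mutants of the ten best first-round binders; En: ensemble of fine-tuned language models; GP: Gaussian process model; GPLM: also part of the Gaussian process libraries; HC: hill climbing; Gen: genetic algorithm; Gibbs: Gibbs sampling; a sequence that several methods proposed may carry one label only). In AlphaSeq, yeast of one mating type display the scFv and yeast of the other type display the target. Binding brings cells together so that they mate, and sequencing counts the barcode pairs among the diploids. Each replicate has its own calibration line, from reference interactions of the BCL2 family. Mating was done six times.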

Parent scFv Ab-14: VH joined to VL by three GGGGS repeats. Changes lie in the heavy chain CDRs alone.
VH: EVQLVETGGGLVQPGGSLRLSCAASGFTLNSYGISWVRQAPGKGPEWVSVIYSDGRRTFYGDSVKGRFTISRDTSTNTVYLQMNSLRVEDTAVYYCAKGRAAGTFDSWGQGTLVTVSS
VL: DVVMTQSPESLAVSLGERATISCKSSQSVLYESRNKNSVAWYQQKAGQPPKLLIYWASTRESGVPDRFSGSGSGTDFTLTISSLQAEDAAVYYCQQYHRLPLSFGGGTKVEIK

Each variant is given by its three heavy chain CDRs, as the data file delimits them; those of the parent are GFTLNSYGIS, VIYSDGRRTFYGDSVK, GRAAGTFDS. This list holds designs with at most six substitutions. Values are apparent Kd, the geometric mean of the replicates that gave a signal; lower means stronger binding. A pair that was not seen in any replicate is written "nd"; this usually means weak binding, but a binder can also be missed. The list is sorted by this average, lowest first, undetected variants last. Empty control strains, which show no peptide, gave a signal in 1% of pairings with all heavy chain designs; the median was 120 nM and 95% of these signals were weaker than 7.0 nM. No background was subtracted. The control count says in how many pairings with the empty strains this scFv gave a signal. In the paper, a design with two or fewer of six values counts as a poor binder. Some sequences occur more than once in the pool; their replicates are pooled. The range of this assay differs from that of the first round, and the authors advise against merging the two. Of ten entries with the parent sequence, four were seen in most replicates (averages 2.2 nM to 240 nM), three in one and three in none, so single entries are noisy.

GFDLNSYGIS | VIYSDGRRTFYVDSVK | GQAAGTFDA [GPLM_Gibbs]: 51 pM (4 of 6 replicates; controls 0 of 18).
GFGLNEYGIS | VIYSDGRRTFYADSVK | GRAAGTFDK [GP_Gibbs]: 180 pM (6 of 6 replicates; controls 0 of 18).
GFELNSYGIS | VIYSDGRRTFYSDSVK | GKVAGTFDS [GPLM_Gibbs]: 370 pM (6 of 6 replicates; controls 1 of 18).
GFTLNEYGIS | VIYSDGRRTFYKDSVK | GRIAGTFDS [GPLM_HC]: 460 pM (6 of 6 replicates; controls 0 of 18).
GFSLNSYGIS | VIYADGRRTFYGDNVK | GRTAGTFDS [GP_Gen]: 670 pM (6 of 6 replicates; controls 0 of 18).
GFTLDSYGIS | VIYSDGRRTFYDDSVK | GRVAGTFDS [GP_HC]: 830 pM (6 of 6 replicates; controls 2 of 18).
GFDLNSYGIS | VIYSDGKRTFYIDSVK | GREAGTFDS [GP_Gen]: 890 pM (6 of 6 replicates; controls 0 of 18).
GFSLNNYGIS | VIYSDGRRTFYADSVK | GRTAGTFDS [GPLM_Gen]: 1.1 nM (6 of 6 replicates; controls 0 of 18).
GFKLNSYGIS | VIYSDGRRTFYTDSVK | GREAGTFDS [GP_Gibbs]: 1.4 nM (6 of 6 replicates; controls 0 of 18).
GFDLNSYGIS | VIYSDGRRTFYGDSVK | GQAGGTFDS [Ctrl+GP_HC]: 1.7 nM (5 of 12 replicates; controls 0 of 36).
GFTLNQYGIS | VIYSDGQRTFYSDSVK | GRQAGTFDS [GPLM_HC]: 1.9 nM (6 of 6 replicates; controls 0 of 18).
GFDLNEYGIS | VIYADGRRTFYADSVK | GEAAGTFVS [En_HC]: 2.0 nM (6 of 6 replicates; controls 0 of 18).
GFTLNEYGIS | VIYSDGRRTFYGDSVK | GRIAGTFDG [GPLM_HC]: 3.1 nM (6 of 6 replicates; controls 0 of 18).
GFRLNEYGIS | VIYSDGRRTFYGDSVK | GRAAGTFDS [GP_HC]: 5.0 nM (6 of 6 replicates; controls 0 of 18).
GFTLESYGIS | VIYSDGRRTFYRDSVK | GRAAGTFDS [Ctrl]: 5.1 nM (1 of 6 replicates; controls 0 of 18).
GFTLNSYGIS | VIYSDGRRTFYKDSVK | GQLAGTFDT [GP_HC]: 5.9 nM (5 of 6 replicates; controls 0 of 18).
GFTLTSYGIS | VIYSDGRRTFYGDSVK | GREAGTFDS [Ctrl]: 7.1 nM (6 of 6 replicates; controls 0 of 18).
GFSLNGYGIS | VIYSDGRRTFYSDSVK | GSAAGTFDS [GP_HC]: 7.7 nM (6 of 6 replicates; controls 1 of 18).
GFTLNSYGIS | VIYSDGRRTFYGDSVK | GTAAGTFDS [Ctrl]: 7.8 nM (5 of 6 replicates; controls 1 of 18).
GFTLNSYGIS | VIYSDGRRTFYSDSVK | GLLAGTFDS [GP_HC]: 9.8 nM (6 of 6 replicates; controls 2 of 18).
GFNLNSYGIS | VIYSDGRRTFYKDSVK | GRTAGTFDQ [GP_Gibbs]: 10 nM (6 of 6 replicates; controls 0 of 18).
GFTLNEYGIS | VIYSDGRRTFYGDSVK | GRAKGTFDS [Ctrl]: 14 nM (6 of 6 replicates; controls 0 of 18).
GFTLNSYGIS | VIYSDGKRTFYGDKVK | GQTAGTFDL [GP_Gibbs]: 16 nM (6 of 6 replicates; controls 0 of 18).
GFTLNSYGIS | VIYSDGRRTAYHDSVK | GRAAGTFWS [Ctrl]: 28 nM (6 of 6 replicates; controls 1 of 18).
GFTLNEYGIS | VIYSDGRRTFYGDSVK | GCIAGTFDS [GP_HC]: 35 nM (4 of 6 replicates; controls 0 of 18).
GMSLNEYGIS | VIYSDGRRTFYGDSVK | GRTAGTFDS [GPLM_Gen]: 37 nM (6 of 6 replicates; controls 0 of 18).
GFWLNSYGIS | VIYSDGRRTFYADSVK | GRNAGTFDS [GPLM_Gibbs]: 66 nM (6 of 6 replicates; controls 0 of 18).
GFQLNSYGIS | VIYSDGRRTFYGDSVK | GRAAGTFDS [Ctrl+GP_HC]: 140 nM (7 of 12 replicates; controls 0 of 36).
GVTLNSYGIS | VIYSDGRRTFYGDSVK | GTAAGTFDS [Ctrl]: 200 nM (1 of 6 replicates; controls 0 of 18).
GKSLNDYGIS | VIYSDGRRTFYGDSVK | GRTAGTFDS [GPLM_Gen]: 610 nM (4 of 6 replicates; controls 0 of 18).
GFDLNSYGIS | VIYSDGRRTFYGDSVK | GRAADTSDS [Ctrl]: nd (0 of 6 replicates; controls 0 of 18).
GFTLNSYGIS | VIYSDGRRTAYGDSVK | GRASATNDL [Ctrl]: nd (0 of 6 replicates; controls 0 of 18).
GFDLNSYCIS | VIYSDGRRTFYGDSVK | VRRAGWFNS [Rand]: nd (0 of 6 replicates; controls 0 of 18).
GFTLNSYGIS | VIYADGRRTVYGDSVK | GRAAGTNKS [Rand]: nd (0 of 6 replicates; controls 0 of 18).
GFTLNEYGIS | VIYSDGRRTFYGQSVK | GRAAVTFDV [GPLM_HC]: nd (0 of 6 replicates; controls 0 of 18).
GFFLNEYGIS | VIYSDGRRTFYGDSVK | GRAAVTFDI [GP_HC]: nd (0 of 6 replicates; controls 0 of 18).
GFTLNEYGIS | VIYSDGRRTFYGDSVK | GRNAFTFDS [Ctrl]: nd (0 of 6 replicates; controls 0 of 18).
GFSLNEYGIS | VIYSDGRRTFYGDSVK | GKAAGTFDC [GP_Gen]: nd (0 of 6 replicates; controls 0 of 18).
GFTLNSYGIS | VIYSDGRRTFYNDSVK | NRAAGTFDS [Ctrl]: nd (0 of 6 replicates; controls 0 of 18).
GLTLNEYGIS | VITSDDRRTFYGDSVK | GRAAGTFPL [Ctrl]: nd (0 of 6 replicates; controls 0 of 18).
GFTLNEYGIS | VIYSDGRRTFYGQSVK | GRAAVTFDQ [GP_HC]: nd (0 of 6 replicates; controls 0 of 18).
GFTLNEYGIS | VIYSDGRRTFYGDSVK | GKAAWTFDS [Ctrl]: nd (0 of 6 replicates; controls 0 of 18).
GFTLNSYGIS | VIYSDGRRNFYGDSVK | GAAAGTFDS [Ctrl]: nd (0 of 6 replicates; controls 0 of 18).

Excerpt, the first 3 entries:

CDR-H1,CDR-H2,CDR-H3,group,Kd (apparent),replicates with signal,signal with controls
GFDLNSYGIS,VIYSDGRRTFYVDSVK,GQAAGTFDA,GPLM_Gibbs,51 pM,4 of 6,0 of 18
GFGLNEYGIS,VIYSDGRRTFYADSVK,GRAAGTFDK,GP_Gibbs,180 pM,6 of 6,0 of 18
GFELNSYGIS,VIYSDGRRTFYSDSVK,GKVAGTFDS,GPLM_Gibbs,370 pM,6 of 6,1 of 18